Molecules are shown by their SMILES.

Amino acid sequences for entries named in this document (tags omitted). Residues count along the entry.
UniProt P19801, 20-751: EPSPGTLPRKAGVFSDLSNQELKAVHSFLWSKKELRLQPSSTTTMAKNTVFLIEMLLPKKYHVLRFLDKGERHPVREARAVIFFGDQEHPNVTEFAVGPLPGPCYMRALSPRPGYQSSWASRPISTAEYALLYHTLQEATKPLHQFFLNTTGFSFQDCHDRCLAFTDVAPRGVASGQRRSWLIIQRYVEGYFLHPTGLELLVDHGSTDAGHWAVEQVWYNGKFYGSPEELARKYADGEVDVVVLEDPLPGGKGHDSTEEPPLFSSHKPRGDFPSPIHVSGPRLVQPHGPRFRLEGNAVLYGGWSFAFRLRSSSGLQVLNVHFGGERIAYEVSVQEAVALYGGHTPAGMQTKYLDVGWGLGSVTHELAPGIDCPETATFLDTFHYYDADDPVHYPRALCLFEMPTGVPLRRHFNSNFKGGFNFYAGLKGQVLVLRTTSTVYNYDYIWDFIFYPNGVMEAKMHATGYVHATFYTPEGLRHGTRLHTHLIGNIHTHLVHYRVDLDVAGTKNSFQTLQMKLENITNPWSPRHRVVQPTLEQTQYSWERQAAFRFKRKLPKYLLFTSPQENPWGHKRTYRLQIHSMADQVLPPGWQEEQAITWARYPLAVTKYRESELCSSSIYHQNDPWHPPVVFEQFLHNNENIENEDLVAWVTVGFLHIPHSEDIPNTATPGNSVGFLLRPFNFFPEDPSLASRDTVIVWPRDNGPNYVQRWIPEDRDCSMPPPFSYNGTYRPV

The test concerns the target Recombinant human DAO (Homo sapiens (Human), UniProt P19801). The experiment in a line: Inhibition of human recombinant diamine oxidase. The settings on record: putrescine 200 μM. The test is classed as biochemical. The method, then: The inhibitory effects of all the compounds of Formula I were tested against human recombinant SSAO/VAP-1 using the coupled colorimetric method as described for monoamine oxidase, copper-containing amine oxidases and related enzymes (Holt A. and Palcic M., A peroxidise-coupled continuous absorbance plate-reader assay for flavin monoamine oxidases, copper-containing amine oxidases and related enzymes. Nat. Protoc. 2006, 1, 2498-2505). Briefly, a cloned cDNA template corresponding to residues 34-763 of human SSAO/VAP-1, and incorporating a mouse Ig kappa (κ) signal sequence, N-terminal Flag epitope tag and tobacco etch virus (TEV) cleavage site, was assembled in a mammalian expression vector (pLO-CMV) by Geneart AG. This vector containing human SSAO/VAP-1 residues was transfected into CHO-K1 glycosylation mutant cell line, Lec 8. A clone stably expressing human SSAO/VAP-1 was isolated and cultured in large scale. Active human SSAO/VAP-1 was purified and recovered using immunoaffinity chromatography. This was used as source for SSAO/VAP-1 activity. A high-throughput colorimetric assay was developed using either 96 or 384 well format.
Three human genes are found to encode for copper-containing amine oxidases. Diamine oxidase (DAO) is one of the enzymes produced by the AOC1 gene, named for its substrate preference for diamines. […]

With `CC(C)(C)NC(=O)c1ccc(OC/C(=C\F)CN)cc1` [Compound 1, (Z)-4-(2-(Aminomethyl)-3-fluoroallyloxy)-N-tert-butylbenzamide], the IC50 (commonly the midpoint of a concentration-inhibition curve) is below 1000 nM.

These data come from patent publication US9302986B2, “Substituted 3-haloallylamine inhibitors of ASSAO and uses thereof” (Boehringer Ingelheim International GmbH, priority 2012, dated 2016).
